Laboratory results as given in ChEMBL document CHEMBL1129490, “Synthesis, biological evaluation, and quantitative receptor docking simulations of 2-[(acylamino)ethyl]-1,4-benzodiazepines as novel tifluadom-like ligands with high affinity and selectivity for kappa-opioid receptors” (1996).
pKi: −log10 of the molar value.

Protein sequences, listed by entry. Tags and fused reporters are not part of them. Lines headed by an entry give the natural chain unless they say otherwise; changes in a name come on top.
UniProt P97266, whole entry, looked up: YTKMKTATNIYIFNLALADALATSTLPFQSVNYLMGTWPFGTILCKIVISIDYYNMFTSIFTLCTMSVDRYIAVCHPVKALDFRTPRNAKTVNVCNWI
UniProt P41144: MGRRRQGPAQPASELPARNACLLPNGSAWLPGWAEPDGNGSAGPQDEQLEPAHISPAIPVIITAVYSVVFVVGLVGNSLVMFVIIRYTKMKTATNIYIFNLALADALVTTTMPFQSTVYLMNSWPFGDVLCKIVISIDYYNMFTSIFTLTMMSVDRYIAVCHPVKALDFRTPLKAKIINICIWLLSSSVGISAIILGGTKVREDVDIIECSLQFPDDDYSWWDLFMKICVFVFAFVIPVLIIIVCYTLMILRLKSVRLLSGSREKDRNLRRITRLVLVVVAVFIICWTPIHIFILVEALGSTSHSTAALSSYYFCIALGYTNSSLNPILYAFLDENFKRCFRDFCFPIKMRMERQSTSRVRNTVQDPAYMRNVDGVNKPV
UniProt P30551, whole entry, looked up: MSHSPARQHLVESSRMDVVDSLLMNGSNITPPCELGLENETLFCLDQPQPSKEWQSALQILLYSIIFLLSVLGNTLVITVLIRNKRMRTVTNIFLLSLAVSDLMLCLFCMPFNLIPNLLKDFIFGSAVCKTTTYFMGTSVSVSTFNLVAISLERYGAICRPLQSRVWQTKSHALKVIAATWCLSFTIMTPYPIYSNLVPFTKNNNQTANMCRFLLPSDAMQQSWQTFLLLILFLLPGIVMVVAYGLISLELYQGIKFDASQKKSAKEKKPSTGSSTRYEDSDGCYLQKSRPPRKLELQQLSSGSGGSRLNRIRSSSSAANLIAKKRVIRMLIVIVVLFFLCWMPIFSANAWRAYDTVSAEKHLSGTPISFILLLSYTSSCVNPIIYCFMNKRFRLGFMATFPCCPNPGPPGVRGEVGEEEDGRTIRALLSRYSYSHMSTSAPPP

Experiments:
[1] = target: Mu-type opioid receptor (Cavia porcellus, UniProt P97266); experiment: Binding affinity against Opioid receptor mu 1 using [3H]-DAMGO as radioligand in guinea pig brain
[2] = target: T1, Kappa-type opioid receptor (Cavia porcellus, UniProt P41144); experiment: Binding affinity against Opioid receptor kappa 1 of guinea pig using [3H]U-65693 as radioligand
[3] = target: T1, Kappa-type opioid receptor; experiment: Binding affinity against Opioid receptor kappa 1 in guinea pig.
[4] = target: Cholecystokinin receptor type A (Rattus norvegicus, UniProt P30551); experiment: Binding affinity against Cholecystokinin type A receptor using [125I](BH)-CCK-8 as radioligand in rat pancreas.

Structure (SMILES) | pKi [1] | pKi [2] | Log Ki [3] | pKi [4] | Log Ki [2]
CN1c2ccc(Cl)cc2C(c2ccccc2)=NCC1CCNC(=O)c1ccc(Cl)cc1 (stereo not drawn) | < 7.00 | 7.46 |  |  | 
CN1c2ccccc2C(c2ccccc2)=NCC1CCNC(=O)c1cccs1 (stereo not drawn) | 8.19 | 9.30 | -9.3 |  | 
CN(C(=O)Cc1ccc(Cl)c(Cl)c1)C1CCCCC1N1CCCC1 (stereo not drawn) |  |  | -9.04 |  | 
CN1c2ccccc2C(c2ccccc2F)=NCC1CNC(=O)c1ccsc1 (stereo not drawn) | 8.71 | 9.11 |  | 7.33 | 
CN1c2ccccc2C(c2ccccc2F)=NC[C@@H]1CNC(=O)c1ccsc1 |  |  |  |  | -9.1
CN1c2ccccc2C(c2ccccc2)=NCC1CCNC(=O)c1ccc(F)cc1 (stereo not drawn) | 8.65 | 9.25 | -9.25 |  | 
CN1c2ccc(Cl)cc2C(c2ccccc2)=NCC1CCNC(=O)c1cccs1 (stereo not drawn) | 7.16 | 8.05 | -8.05 |  | 
CN1c2ccccc2C(c2ccccc2)=NCC1CCNC(=O)c1ccccc1F (stereo not drawn) | 8.33 | 8.99 | -8.99 |  | 
CN1c2ccc(Cl)cc2C(c2ccccc2)=NCC1CCNC(=O)c1ccccc1F (stereo not drawn) | 7.21 | 7.75 | -7.75 |  | 
CN(C(=O)Cc1ccccc1)[C@H]1CC[C@@]2(CCCO2)C[C@@H]1N1CCCC1 |  |  | -8.75 |  | 
CN1c2ccc(Cl)cc2C(c2ccccc2)=NCC1CCNC(=O)c1ccc(F)cc1 (stereo not drawn) | 7.27 | 8.32 | -8.32 |  | 
CN1c2ccc(Cl)cc2C(c2ccccc2)=NCC1CCNC(=O)c1cc2ccccc2[nH]1 (stereo not drawn) | < 7.00 | 6.53 |  |  | 
